Laboratory results: ChEMBL document CHEMBL1127826, “Inhibitors of acyl-CoA:cholesterol acyltransferase (ACAT). 7. Development of a series of substituted N-phenyl-N'-[(1-phenylcyclopentyl)methyl]ureas with enhanced hypocholesterolemic activity” (J Med Chem, 1994)

Molecular target: T1, Acyl-CoA:cholesterol acyltransferase (Oryctolagus cuniculus, UniProt Q95214)
T1 sequence (Q95214 whole entry): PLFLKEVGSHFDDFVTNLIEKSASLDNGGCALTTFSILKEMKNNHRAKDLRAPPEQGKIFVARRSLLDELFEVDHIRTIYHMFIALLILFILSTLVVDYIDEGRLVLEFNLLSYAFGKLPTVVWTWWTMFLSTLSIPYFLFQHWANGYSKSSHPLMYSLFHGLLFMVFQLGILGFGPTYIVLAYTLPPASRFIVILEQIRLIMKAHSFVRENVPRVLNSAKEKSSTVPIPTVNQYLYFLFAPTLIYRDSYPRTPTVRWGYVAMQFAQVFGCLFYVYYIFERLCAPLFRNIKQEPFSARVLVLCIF
Test: Tested for in vitro inhibition against Acyl coenzyme A:cholesterol acyltransferase of intestinal microsomes in cholesterol-fed rabbits
Design: species or system Microsome
Outline: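 Microsomes were prepared from intestine of cholesterol-fed rabbits. ACAT activity was measured using [1-14C]oleoyl-CoA as substrate. Each determination was run in triplicate.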

IC50: 47 nM
SMILES: CC(C)c1cccc(C(C)C)c1NC(=O)NCC1(c2cccc(CN(CCO)CCO)c2)CCCC1
